Laboratory results: patent US20160045486A1, “DOPAMINE RECEPTOR LIGANDS WITH ENHANCED DURATION OF ACTION” (priority 2008, published 2016)

Protein sequences, listed by entry. Tags and fused reporters are not part of them. Lines headed by an entry give the natural chain unless they say otherwise; changes in a name come on top.
UniProt P14416, whole entry: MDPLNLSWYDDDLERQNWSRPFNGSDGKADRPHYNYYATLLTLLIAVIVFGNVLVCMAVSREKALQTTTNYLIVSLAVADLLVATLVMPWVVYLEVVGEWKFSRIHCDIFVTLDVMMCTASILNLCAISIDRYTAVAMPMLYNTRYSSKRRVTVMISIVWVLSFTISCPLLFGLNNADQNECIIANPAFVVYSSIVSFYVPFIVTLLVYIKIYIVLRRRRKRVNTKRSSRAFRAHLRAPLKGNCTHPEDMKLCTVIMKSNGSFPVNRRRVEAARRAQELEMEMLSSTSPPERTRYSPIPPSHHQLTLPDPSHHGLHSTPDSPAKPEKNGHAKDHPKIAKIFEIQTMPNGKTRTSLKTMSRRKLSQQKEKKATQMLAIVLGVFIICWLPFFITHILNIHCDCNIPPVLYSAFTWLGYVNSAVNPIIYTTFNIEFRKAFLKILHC

Target: T1, Cloned human receptors D2L (C-6) (Homo sapiens, UniProt P14416)
T1 construct: expressed in transfected cells; host or cells: C-6 cells
Test: Binding affinity, cloned human D2L receptor (C-6)
Settings: C-6 cells; read-out: K0.5, Cloned human receptors D2L (C-6)

Q: For `Oc1cc2c(cc1O)[C@@H]1c3ccccc3CN[C@H]1CC2` (relative stereo) [dihydrexidine, trans-10,11-dihydroxy-5,6,6a,7,8,12b-hexahydrobenzo[a]phenanthridine, reference compound], which Ki is on record?
A: 180 nM
